ChEMBL document CHEMBL3259658, “Discovery of BI 224436, a Noncatalytic Site Integrase Inhibitor (NCINI) of HIV-1” (ACS Med Chem Lett, 2014)

The molecules below were run against Human immunodeficiency virus type 1 integrase (Human immunodeficiency virus 1, UniProt Q7ZJM1) (assay: Inhibition of HIV1 integrase by LTR cleavage assay).

Row | Structure (SMILES) | IC50 [µM]
1 | Cc1nc2ccc(Br)cc2c(-c2ccccc2)c1CC(=O)O | 5.1
2 | Cc1nc2ccc(Cl)cc2c(-c2ccccc2)c1CC(=O)O | 9.1
3 | Cc1nc2ccccc2c(-c2ccc(Cl)cc2)c1CC(=O)O | 3.1
